Results as given in patent publication EP1049676B1, “4- ARYL(PIPERIDIN-4-YL)] AMINOBENZAMIDES WHICH BIND TO THE DELTA-OPIOID RECEPTOR” (dated 1999).

These compounds were tested against δ-opioid receptor (Rattus norvegicus, UniProt P33533) (assay: Rat Brain δ-Opioid Receptor Binding Assay ([3H]DPDPE, forebrain membranes)). Details: binding to the δ-opioid receptor, 25°C.

| SMILES | Ki |
| --- | --- |
| CCCN1CCC(N(c2ccccc2)c2ccc(C(=O)N(CC)CC)cc2)CC1 | 25 nM |

Each compound was assayed against opioid delta receptor (Homo sapiens, UniProt P41143) (assay: High Throughput Screening Assay for Delta-Opioid Receptor Binding ([3H]bremazocine competition, CHO cell membranes)). Details: percent inhibition of control binding at 25 µM test compound; [3H]bremazocine 2.4 nM; cloned human receptor in CHO cell membranes.

| SMILES | %1 @ 25 µM |
| --- | --- |
| COc1cccc(N(c2ccc(C(=O)N3CCCC3)cc2)C2CCN(C)CC2)c1 | 91% |
| CN1CCC(N(c2ccc(C(=O)N3CCOCC3)cc2)c2cccc(F)c2)CC1 | 77% |
| COc1cccc(N(c2ccc(C(=O)N3CCOCC3)cc2)C2CCN(C)CC2)c1 | 70% |
| CCCN1CCC(N(c2ccc(C(=O)N(CC)CC)cc2)c2cccc(OC)c2)CC1 | 97% |
| CCCN1CCC(N(c2ccc(C(=O)N(CC)CC)cc2)c2cccc(Cl)c2)CC1 | 102% |
| CN1CCC(N(c2ccc(C(=O)N3CCCC3)cc2)c2cccc(F)c2)CC1 | 85% |
| CCN(C)C(=O)c1ccc(N(c2ccccc2)C2CCN(C)CC2)cc1 | 95% |
| CCCN(CCC)C(=O)c1ccc(N(c2cccc(F)c2)C2CCN(C)CC2)cc1 | 100% |
| CN1CCC(N(c2ccccc2)c2ccc(C(=O)N3CCCC3)cc2)CC1 | 81% |
| CCN1CCC(N(c2ccccc2)c2ccc(C(=O)N3CCOCC3)cc2)CC1 | 64% |
| CN1CCC(N(c2ccccc2)c2ccc(C(=O)N3CCOCC3)cc2)CC1 | 93% |
| CCN(CC)C(=O)c1ccc(N(c2ccccc2)C2CCN(C)CC2)cc1 | 100% |
| COc1cccc(N(c2ccc(C(=O)N(C(C)C)C(C)C)cc2)C2CCN(C)CC2)c1 | 98% |
| CCN1CCC(N(c2ccccc2)c2ccc(C(=O)N(CC)CC)cc2)CC1 | 100% |
| CCCN1CCC(N(c2ccc(C(=O)N(CC)CC)cc2)c2cccc(OC(C)=O)c2)CC1 | 100% |
| CCCN(CCC)C(=O)c1ccc(N(c2cccc(OC)c2)C2CCN(C)CC2)cc1 | 100% |
| CCCN(CCC)C(=O)c1ccc(N(c2ccccc2)C2CCN(C)CC2)cc1 | 101% |
| CCN(CC)C(=O)c1ccc(N(c2cccc(OC)c2)C2CCN(C)CC2)cc1 | 98% |
| CN1CCC(N(c2ccc(C(=O)N3CCCCC3)cc2)c2cccc(F)c2)CC1 | 85% |
| CCN1CCC(N(c2ccccc2)c2ccc(C(=O)N(C)CC)cc2)CC1 | 98% |
| CCN1CCC(N(c2ccc(C(=O)N(C)CC)cc2)c2cccc(F)c2)CC1 | 97% |
| CCN1CCC(N(c2ccc(C(=O)N(C(C)C)C(C)C)cc2)c2cccc(F)c2)CC1 | 88% |

| SMILES | %1 @ 25 µM |
| --- | --- |
| CCN1CCC(N(c2ccc(C(=O)N3CCOCC3)cc2)c2cccc(F)c2)CC1 | 64% |
| CCCN1CCC(N(c2ccccc2)c2cccc(C(=O)N(C)c3ccccc3)c2)CC1 | 41% |
| CCN(C)C(=O)c1ccc(N(c2cccc(OC)c2)C2CCN(C)CC2)cc1 | 95% |
| CC(C)N(C(=O)c1ccc(N(c2ccccc2)C2CCN(C)CC2)cc1)C(C)C | 100% |
| CCCN(CCC)C(=O)c1ccc(N(c2ccccc2)C2CCN(CC)CC2)cc1 | 100% |
| CCCN1CCC(N(c2ccc(C(=O)N(CC)CC)cc2)c2ccccc2OC)CC1 | 100% |
| CCCN(CCC)C(=O)c1ccc(N(c2cccc(F)c2)C2CCN(CC)CC2)cc1 | 101% |
| CCN(CC)C(=O)c1ccc(N(c2cccc(F)c2)C2CCN(C)CC2)cc1 | 97% |
| CCN1CCC(N(c2ccccc2)c2ccc(C(=O)N3CCCCC3)cc2)CC1 | 92% |
| CCN1CCC(N(c2ccccc2)c2ccc(C(=O)N(C(C)C)C(C)C)cc2)CC1 | 100% |
| CC(C)N(C(=O)c1ccc(N(c2cccc(F)c2)C2CCN(C)CC2)cc1)C(C)C | 97% |
| CCCN1CCC(N(c2ccccc2)c2ccc(C(=O)N(CC)CC)cc2)CC1 | 94% |
| COc1cccc(N(c2ccc(C(=O)N3CCCCC3)cc2)C2CCN(C)CC2)c1 | 89% |
| CCN1CCC(N(c2ccc(C(=O)N(CC)CC)cc2)c2cccc(F)c2)CC1 | 98% |
| CCN1CCC(N(c2ccc(C(=O)N3CCCC3)cc2)c2cccc(F)c2)CC1 | 87% |
| CCN1CCC(N(c2ccc(C(=O)N3CCCCC3)cc2)c2cccc(F)c2)CC1 | 89% |
| CCN1CCC(N(c2ccccc2)c2ccc(C(=O)N3CCCC3)cc2)CC1 | 88% |
| CCN(C)C(=O)c1ccc(N(c2cccc(F)c2)C2CCN(C)CC2)cc1 | 96% |
| CN1CCC(N(c2ccccc2)c2ccc(C(=O)N3CCCCC3)cc2)CC1 | 68% |
| CCN(CC)C(=O)c1ccc(N(c2ccccc2)C2CCN(Cc3ccccc3)CC2)cc1 | 99% |
| CCCN1CCC(N(c2ccc(C(=O)N3CCCC3)cc2)c2cccc(Cl)c2)CC1 | 101% |
